Test results: patent US6737439B2
“And” between values parts separate entries of the source, which are not always exact repeats. Identical values can stand only once.

Amino acid sequences for entries named in this document (tags omitted).
UniProt P11511, whole entry: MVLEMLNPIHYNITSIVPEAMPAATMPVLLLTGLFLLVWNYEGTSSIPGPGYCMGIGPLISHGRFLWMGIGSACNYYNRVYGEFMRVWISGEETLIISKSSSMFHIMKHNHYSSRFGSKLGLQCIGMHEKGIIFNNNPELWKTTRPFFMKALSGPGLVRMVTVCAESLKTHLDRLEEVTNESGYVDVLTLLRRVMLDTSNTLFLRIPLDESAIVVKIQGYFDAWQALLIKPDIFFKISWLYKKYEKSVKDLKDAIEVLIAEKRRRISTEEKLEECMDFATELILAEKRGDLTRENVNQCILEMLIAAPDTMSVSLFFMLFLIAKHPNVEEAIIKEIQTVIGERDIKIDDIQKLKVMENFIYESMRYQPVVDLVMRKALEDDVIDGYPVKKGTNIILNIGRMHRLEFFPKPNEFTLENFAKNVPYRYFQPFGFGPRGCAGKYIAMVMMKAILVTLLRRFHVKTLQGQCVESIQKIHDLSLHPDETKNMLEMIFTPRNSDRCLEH

Biological target: aromatase (Homo sapiens, UniProt P11511)
Test: Assay for inhibition of aromatase activity (human placental microsomes, [1,2-3H]androstenedione)
Format: biochemical
Conditions: read-out: IC50 (μM), aromatase inhibitory activity

## CC(C)=CCc1cc(-c2oc3cc(O)cc(O)c3c(=O)c2O)ccc1O
  IC50: 0.1 µM and 0.13 µM
